This assay addresses human KOP receptor (Homo sapiens, UniProt P41145). Briefly: [35S]GTPγS functional assay, CHOhKOP cell membranes. The conditions noted are these: read-out: [35S]GTPγS functional assay KOP EC50, CHO membranes, mean ± SEM. It counts as biochemical. (In general: GTPγS resists hydrolysis and so accumulates on activated G proteins.)

The chains behind the UniProt entries cited, without tags or fusion partners. Where a name states a change or a piece, a line headed by the entry shows the natural chain unless it says otherwise.
UniProt P41145: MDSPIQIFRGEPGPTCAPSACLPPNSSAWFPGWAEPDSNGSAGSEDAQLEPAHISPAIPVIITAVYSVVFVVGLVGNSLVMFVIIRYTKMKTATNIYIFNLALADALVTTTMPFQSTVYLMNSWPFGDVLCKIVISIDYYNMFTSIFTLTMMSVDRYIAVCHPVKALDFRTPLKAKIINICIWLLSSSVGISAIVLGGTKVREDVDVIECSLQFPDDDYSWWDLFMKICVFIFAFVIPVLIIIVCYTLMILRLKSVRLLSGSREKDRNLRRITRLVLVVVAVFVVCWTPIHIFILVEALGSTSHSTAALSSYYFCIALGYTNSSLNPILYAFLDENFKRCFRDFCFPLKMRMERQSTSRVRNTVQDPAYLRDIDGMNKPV

Take “5α,7α,8β-(−)N-methyl-N-[7-(1-pyrrolidinyl)-1-oxaspiro(4,5)dec-8-yl]benzeneacetamide”: the EC50 stood at 42.7 nM.

The EC50 is the midpoint of the concentration-response curve.

These data come from PMC4053365 (PLoS ONE, 2014).
